# Test results as given in US20230322745A1, “FUSED TRICYCLIC DERIVATIVE AND PHARMACEUTICAL APPLICATION THEREOF” (CHIA TAI TIANQING PHARMACEUTICAL GROUP CO., LTD., priority 2020, published 2023).
# Sequences of proteins named here, by UniProt entry; tags and fusion partners are left off.
# UniProt P20309, whole entry: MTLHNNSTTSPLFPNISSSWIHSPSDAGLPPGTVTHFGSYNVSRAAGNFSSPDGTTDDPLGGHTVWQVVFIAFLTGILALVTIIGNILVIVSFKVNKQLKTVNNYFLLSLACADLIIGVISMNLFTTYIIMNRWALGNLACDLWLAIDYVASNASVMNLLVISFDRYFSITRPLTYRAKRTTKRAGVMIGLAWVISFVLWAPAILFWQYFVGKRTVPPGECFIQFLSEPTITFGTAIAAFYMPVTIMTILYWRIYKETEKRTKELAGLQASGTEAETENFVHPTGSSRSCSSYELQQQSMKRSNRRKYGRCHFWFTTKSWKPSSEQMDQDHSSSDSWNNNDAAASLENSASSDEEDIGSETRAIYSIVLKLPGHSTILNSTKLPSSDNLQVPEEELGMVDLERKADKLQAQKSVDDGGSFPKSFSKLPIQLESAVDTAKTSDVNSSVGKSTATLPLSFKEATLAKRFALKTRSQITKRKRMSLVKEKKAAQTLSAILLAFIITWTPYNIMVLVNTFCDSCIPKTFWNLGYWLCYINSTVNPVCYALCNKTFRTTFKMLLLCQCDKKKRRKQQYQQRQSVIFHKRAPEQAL
# UniProt P07550, whole entry: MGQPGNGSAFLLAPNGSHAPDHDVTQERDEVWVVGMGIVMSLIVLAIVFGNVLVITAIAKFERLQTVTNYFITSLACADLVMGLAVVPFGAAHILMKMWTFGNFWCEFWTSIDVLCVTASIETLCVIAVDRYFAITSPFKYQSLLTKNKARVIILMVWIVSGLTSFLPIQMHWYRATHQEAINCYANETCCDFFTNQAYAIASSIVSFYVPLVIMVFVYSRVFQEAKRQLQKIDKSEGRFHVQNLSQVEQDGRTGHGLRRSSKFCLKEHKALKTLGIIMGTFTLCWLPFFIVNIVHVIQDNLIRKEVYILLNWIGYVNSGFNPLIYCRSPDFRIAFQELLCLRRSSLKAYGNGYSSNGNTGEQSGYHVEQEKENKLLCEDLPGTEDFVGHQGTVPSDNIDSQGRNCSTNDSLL
# UniProt P08588, whole entry: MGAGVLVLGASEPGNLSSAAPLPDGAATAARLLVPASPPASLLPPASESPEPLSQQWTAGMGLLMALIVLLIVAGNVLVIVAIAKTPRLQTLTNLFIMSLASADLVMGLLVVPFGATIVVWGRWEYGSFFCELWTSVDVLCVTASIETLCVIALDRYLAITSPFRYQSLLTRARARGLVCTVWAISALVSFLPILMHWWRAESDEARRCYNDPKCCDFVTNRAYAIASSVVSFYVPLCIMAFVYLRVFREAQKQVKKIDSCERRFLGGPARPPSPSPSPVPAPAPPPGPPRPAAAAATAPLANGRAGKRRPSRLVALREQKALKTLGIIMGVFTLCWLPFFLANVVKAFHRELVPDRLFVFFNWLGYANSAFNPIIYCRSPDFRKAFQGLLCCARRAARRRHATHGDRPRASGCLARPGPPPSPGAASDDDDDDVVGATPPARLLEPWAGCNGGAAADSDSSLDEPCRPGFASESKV
# UniProt P08172, whole entry: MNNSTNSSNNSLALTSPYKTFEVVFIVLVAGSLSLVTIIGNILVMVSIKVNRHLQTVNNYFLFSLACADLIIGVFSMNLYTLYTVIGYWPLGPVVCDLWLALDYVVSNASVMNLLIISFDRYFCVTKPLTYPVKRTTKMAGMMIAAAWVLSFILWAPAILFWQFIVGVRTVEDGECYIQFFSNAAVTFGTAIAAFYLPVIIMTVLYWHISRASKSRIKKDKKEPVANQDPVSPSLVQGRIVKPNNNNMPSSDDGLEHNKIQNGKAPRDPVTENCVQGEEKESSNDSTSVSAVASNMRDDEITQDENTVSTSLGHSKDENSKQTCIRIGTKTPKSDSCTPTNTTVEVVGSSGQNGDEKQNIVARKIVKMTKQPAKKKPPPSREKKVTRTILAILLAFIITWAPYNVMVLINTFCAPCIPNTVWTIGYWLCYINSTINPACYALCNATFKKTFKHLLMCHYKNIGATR
# Where a name gives a salt, the structure may show the parent alone. Read-outs that look alike come from different tables or passages of the source.
# How the values were obtained:
# M3 receptor = M3 receptor (Homo sapiens (Human), UniProt P20309); assay: M3 receptor affinity test (3H-NMS competition); conditions: read-out: IC50, activity against the M3 receptor in vitro; 0.2 nM 3H-NMS, M3 receptor membrane protein, 2 h at room temperature; tested form: formate
# Protocol: M3 receptor is a G protein-coupled receptor. In this experiment, the activity of test compounds against the M3 receptor in vitro was assayed by the competition of radioisotope labeled NMS and non-isotope labeled test compounds for an M3 binding site.
# (§1) The experiment was performed by a radioisotope affinity assay. The M3 receptor membrane protein was prepared at 10 μg/mL by Biology Department of WuXi AppTec, and compounds were serially diluted in a 2.5-fold gradient in DMSO to obtain 10 concentrations. Radioisotope 3H-NMS was prepared at 0.2 nM in an assay buffer (10 mM HEPES, 1 mM MgCl2, pH 7.40). In formal testing, the experimental system comprising 1 of the test compound, 100 μL of M3 receptor membrane protein and 100 μL of radioisotope was shaken in a shaker at 300 RPM for 2 h at room temperature. A GF/C plate (Perkin Elmer, Cat No. 6055690) was prefoamed with 0.3% PEI, and the membrane proteins in the reaction solution were collected by filtration onto the GF/C plate. The signal values were read by a Perkin Elmer Microbeta2 instrument and the inhibition rate for each concentration point was shown as a percentage.
# [1] = biological target: β2 receptor (cells expressing human ADRB2 gene) (Homo sapiens (Human), UniProt P07550); assay: Agonistic effect on β2 receptor by HTRF cAMP method
# Protocol: (§2) β2 receptor is a G protein-coupled receptor, which is mainly coupled with Gs protein, and can activate adenylate cyclase activity through the Gs protein after being activated by binding to the ligand, thereby increasing the level of intracellular cAMP. In this experiment, the agonistic activity of the compounds against the β2 receptor in vitro was assayed by the cAMP kit.
# (§3) β2 cells (expressing human ADRB2 gene) from ICE Bioscience Inc. were grown under standard conditions. The cells were collected and diluted with 1× Stimulation Buffer, and 9 μL of the cell dilution was added to a white low-volume 384-well plate with 1000 cells seeded in each well. Compounds were serially diluted in DMSO in a 5-fold gradient to obtain 10 concentrations. Before testing, compounds that had been serially diluted in DMSO were subjected to 100-fold dilution with 1× Stimulation Buffer to obtain compound working solutions. The concentration of the vehicle DMSO was 0.1%. Eu-cAMP and ULight™-anti-cAMP were diluted to the working concentration with Detection buffer. 5 μL of Eu-cAMP diluent and 5 μL of ULight™-anti-cAMP diluent were sequentially added into corresponding experiment wells. After 1 h of incubation at room temperature, readings at 665 nm and 620 nm were measured under the excitation wavelength of 330 nm using a Biotek microplate reader. The activity of the compounds was obtained by plotting through Ratio (665/620) against the concentration of the compounds, fitting the curve by a nonlinear regression method using GraphPad Prism 7 software and calculating EC50.
# [2] = biological target: β1 receptor (cells expressing human ADRB1 gene) (Homo sapiens (Human), UniProt P08588); assay: Agonistic effect on β1 receptor by HTRF cAMP method
# Protocol: as §2, with “β1” for “β2”
# as §3, with “β1” for “β2”, “ADRB1” for “ADRB2”, “4000” for “1000”
# M2 receptor = M2 receptor (Homo sapiens (Human), UniProt P08172); assay: M2 receptor affinity test (3H-NMS competition); conditions: read-out: IC50, activity against the M2 receptor in vitro, 0.2 nM 3H-NMS, M2 receptor membrane protein, 2 h at room temperature
# Protocol: M2 receptor is a G protein-coupled receptor. In this experiment, the activity of test compounds against the M2 receptor in vitro was assayed by the competition of radioisotope labeled NMS and non-isotope labeled test compounds for an M2 binding site.
# as §1, with “The M2 receptor membrane” for “The experiment was performed by a radioisotope affinity assay. The M3 receptor membrane”, “prepared at 100 μg/mL by” for “prepared at 10 μg/mL by”, “comprising 1 μL of the” for “comprising 1 of the”, “μL of M2 receptor membrane” for “μL of M3 receptor membrane”
# [3] = read-out: EC50, agonistic activity against the β2 receptor in vitro, 1 h incubation at room temperature, tested form: formate
# [4] = read-out: EC50, agonistic activity against the β1 receptor in vitro, 1 h incubation at room temperature, tested form: formate
# [5] = read-out: EC50, agonistic activity against the β2 receptor in vitro, 1 h incubation at room temperature, tested form: TFA
# [6] = read-out: EC50, agonistic activity against the β1 receptor in vitro, 1 h incubation at room temperature, tested form: TFA
SMILES,IC50 (M3 receptor),"EC50 [1, 3]","EC50 [2, 4]",IC50 (M2 receptor; tested form: formate),other results
"O=C(OC1CC2(C1)CN(CCCn1nnc3cc(CNC[C@H](O)c4ccc(O)c5[nH]c(=O)ccc45)c4c(c31)CCC4)C2)C(O)(c1cccs1)c1ccc(-c2ccccc2)s1 (single isomer, unassigned)",9.36 nM,–,–,–,–
"CN(CCCn1nnc2cc(CNC[C@H](O)c3ccc(O)c4[nH]c(=O)ccc34)c3c(c21)CCC3)[C@H]1CC[C@H](OC(=O)C(O)(c2cccs2)c2ccc(C(C)(C)C)s2)CC1 (single isomer, unassigned) [Formate salt of compound 5]",13.8 nM,2.63 nM,231 nM,–,–
"CN(CCCn1nnc2cc(CNC[C@H](O)c3ccc(O)c4[nH]c(=O)ccc34)c3c(c21)CCC3)[C@H]1CC[C@H](OC(=O)C(O)(c2cccs2)c2ccc(C(C)(C)C)s2)CC1 (single isomer, unassigned) [Formate salt of compound 6]",–,–,278 nM,–,–
"O=C(OC1CC2(C1)CN(CCCn1nnc3cc(CNC[C@H](O)c4ccc(O)c5[nH]c(=O)ccc45)c4c(c31)CCC4)C2)C(O)(c1cccs1)c1cc2ccccc2s1 (single isomer, unassigned) [Formate salt of compound 20]",31.1 nM,–,–,–,–
"O=C(OC1CC2(C1)CN(CCCn1nnc3cc(CNC[C@H](O)c4ccc(O)c5[nH]c(=O)ccc45)c4c(c31)CCC4)C2)C(O)(c1cccs1)c1cc2ccccc2s1 (single isomer, unassigned) [Formate salt of compound 21]",–,–,276 nM,–,–
"CN(CCCn1nnc2cc(CNC[C@H](O)c3ccc(O)c4[nH]c(=O)ccc34)c3c(c21)CCC3)[C@H]1CC[C@H](OC(=O)C(O)(c2cccs2)c2ccc(-c3ccccc3)s2)CC1 (single isomer, unassigned) [Formate salt of compound 22]",–,20.8 nM,–,–,–
"CN(CCCn1nnc2cc(CNC[C@H](O)c3ccc(O)c4[nH]c(=O)ccc34)c3c(c21)CCC3)[C@H]1CC[C@H](OC(=O)C(O)(c2cccs2)c2ccc(-c3ccccc3)s2)CC1 (single isomer, unassigned) [Formate salt of compound 23]",–,16.8 nM,–,–,–
"O=C(OC1COC2(CCN(CCCn3nnc4cc(CNC[C@H](O)c5ccc(O)c6[nH]c(=O)ccc56)c5c(c43)CCC5)CC2)C1)C(O)(c1cccs1)c1cccs1 (single isomer, unassigned) [Formate salt of compound 24]",0.22 nM,158 nM,155 nM,0.014 nM,–
"O=C(OC1COC2(CCN(CCCn3nnc4cc(CNC[C@H](O)c5ccc(O)c6[nH]c(=O)ccc56)c5c(c43)CCC5)CC2)C1)C(O)(c1cccs1)c1cccs1 (single isomer, unassigned) [Formate salt of compound 25]",0.179 nM,0.388 nM,193 nM,0.03 nM,–
"Cc1ccc(C(O)(C(=O)O[C@H]2CC[C@H](N(C)CCCn3nnc4cc(CNC[C@H](O)c5ccc(O)c6[nH]c(=O)ccc56)c5c(c43)OCO5)CC2)c2cccs2)s1 (single isomer, unassigned) [Formate salt of compound 34]",0.657 nM,0.405 nM,37.3 nM,0.248 nM,–
"Cc1ccc(C(O)(C(=O)O[C@H]2CC[C@H](N(C)CCCn3nnc4cc(CNC[C@H](O)c5ccc(O)c6[nH]c(=O)ccc56)c5c(c43)OCO5)CC2)c2cccs2)s1 (single isomer, unassigned) [Formate salt of compound 35]",0.213 nM,0.671 nM,55.6 nM,0.588 nM,–
"Cc1ccc(C(O)(C(=O)O[C@H]2CC[C@H](N(C)CCCn3nnc4cc(CNC[C@H](O)c5ccc(O)c6[nH]c(=O)ccc56)c5c(c43)COC5)CC2)c2cccs2)s1 (single isomer, unassigned) [Formate salt of compound 36]",0.792 nM,2.45 nM,50.5 nM,1.74 nM,–
"Cc1ccc(C(O)(C(=O)O[C@H]2CC[C@H](N(C)CCCn3nnc4cc(CNC[C@H](O)c5ccc(O)c6[nH]c(=O)ccc56)c5c(c43)COC5)CC2)c2cccs2)s1 (single isomer, unassigned) [Formate salt of compound 37]",0.871 nM,1.93 nM,48 nM,2.01 nM,–
"Cc1ccc(C(O)(C(=O)O[C@H]2CC[C@H](N(C)CCCn3cnc4cc(CNC[C@H](O)c5ccc(O)c6[nH]c(=O)ccc56)c5c(c43)CCC5)CC2)c2cccs2)s1 (single isomer, unassigned) [Formate salt of compound 38]",0.555 nM,13.5 nM,338 nM,0.842 nM,–
"O=C(OC1CCN(CCCn2nnc3cc(CNC[C@H](O)c4ccc(O)c5[nH]c(=O)ccc45)c4c(c32)CCC4)CC1)C(O)(c1cccs1)c1ccc(Br)s1 (single isomer, unassigned) [Trifluoroacetate salt of compound 8]",–,–,–,–,"EC50 [1, 5]: 1.62 nM; EC50 [2, 6]: 395 nM"
"O=C(OC1CCN(CCCn2nnc3cc(CNC[C@H](O)c4ccc(O)c5[nH]c(=O)ccc45)c4c(c32)CCC4)CC1)C(O)(c1cccs1)c1ccc(Br)s1 (single isomer, unassigned) [Trifluoroacetate salt of compound 9]",–,–,–,–,"EC50 [2, 6]: 696 nM"
"Cc1ccc(C(O)(C(=O)O[C@H]2CC[C@H](N(C)CCCn3nnc4cc(CNC[C@H](O)c5ccc(O)c6[nH]c(=O)ccc56)c5c(c43)CCC5)CC2)c2cccs2)s1 (single isomer, unassigned) [Trifluoroacetate salt of compound 13]",–,–,–,–,"IC50 (M2 receptor; tested form: TFA): 0.24 nM; EC50 [1, 5]: 1.73 nM; EC50 [2, 6]: 142 nM"
"Cc1ccc(C(O)(C(=O)O[C@H]2CC[C@H](N(C)CCCn3nnc4cc(CNC[C@H](O)c5ccc(O)c6[nH]c(=O)ccc56)c5c(c43)CCC5)CC2)c2cccs2)s1 (single isomer, unassigned) [Trifluoroacetate salt of compound 14]",–,–,–,–,"EC50 [2, 6]: 127 nM"
